Read-outs that look alike come from different tables or passages of the source.
How the values were obtained:
[1] = target: Plasmodium vivax (Pv) NMT (Plasmodium vivax (strain Salvador I), UniProt A5K1A2); assay: biochemical
[2] = test system: Plasmodium falciparum 3D7; assay: SYBR Green assay, Plasmodium falciparum strain 3D7; format: cell-based; details: P. falciparum strain 3D7, 96 h incubation, read-out: Pf EC50 strain 3D7
Source text: Assay (g): SYBR Green Assay […] Values were expressed in relative fluorescence units.

Protein sequences, listed by entry. Tags and fused reporters are not part of them. Lines headed by an entry give the natural chain unless they say otherwise; changes in a name come on top. Residues count along the entry.
UniProt A5K1A2, 1-410: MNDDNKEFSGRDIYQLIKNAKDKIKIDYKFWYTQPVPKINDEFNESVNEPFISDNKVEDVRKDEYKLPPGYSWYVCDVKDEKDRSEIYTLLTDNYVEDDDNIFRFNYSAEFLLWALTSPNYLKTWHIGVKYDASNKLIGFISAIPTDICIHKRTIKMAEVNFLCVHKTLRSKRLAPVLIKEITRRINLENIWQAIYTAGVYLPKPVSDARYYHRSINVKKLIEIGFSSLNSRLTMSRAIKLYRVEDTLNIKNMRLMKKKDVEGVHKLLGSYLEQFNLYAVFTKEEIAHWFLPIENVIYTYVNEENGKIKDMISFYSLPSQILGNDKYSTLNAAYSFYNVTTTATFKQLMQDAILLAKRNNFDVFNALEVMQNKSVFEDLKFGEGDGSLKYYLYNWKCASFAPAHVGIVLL
UniProt P30419: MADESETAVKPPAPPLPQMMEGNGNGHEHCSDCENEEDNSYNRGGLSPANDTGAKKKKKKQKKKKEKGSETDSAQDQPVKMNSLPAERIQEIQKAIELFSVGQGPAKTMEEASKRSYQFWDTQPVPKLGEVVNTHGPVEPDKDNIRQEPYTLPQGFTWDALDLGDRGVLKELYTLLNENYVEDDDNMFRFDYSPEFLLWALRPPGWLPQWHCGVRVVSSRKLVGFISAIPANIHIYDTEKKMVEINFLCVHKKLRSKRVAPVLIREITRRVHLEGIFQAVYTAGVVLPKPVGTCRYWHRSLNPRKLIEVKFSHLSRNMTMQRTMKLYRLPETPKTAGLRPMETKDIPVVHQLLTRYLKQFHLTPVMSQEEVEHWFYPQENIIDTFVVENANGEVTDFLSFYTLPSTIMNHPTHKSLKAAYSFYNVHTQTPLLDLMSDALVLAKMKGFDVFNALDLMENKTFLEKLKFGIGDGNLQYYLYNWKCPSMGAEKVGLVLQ

Human NMT1 (HsNMT1) = Human NMT1 (HsNMT1) (Homo sapiens, UniProt P30419)
[3] = Rat clearance and bioavailability (iv and oral dosing); format: in vivo; details: male, Sprague-Dawley, cassette dosing of 4 compounds
Method: Half-life times and bioavailability was determined.

in vitro = details: male, Sprague-Dawley, rat, hepatocytes, pH 7.4
BL-41 cells = assay: Metabolic activity assay (MTS assay) in BL-41 cell line; format: cell-based; details: Homo sapiens, 72 h
Method: Cell Preparation: BL-41 cells (obtained from Cell Services at the Crick Institute; cell type: […] Cell suspensions were prepared by adjusting the cell density to the appropriate concentration (as stated in the Table 7 below) and 50 μL of the cell suspension was transferred to wells B-G in columns 2-11 of a 96-well plate. [table] Assay Procedure: […] After 72 h, 20 μL MTS reagent (G3580, prepared as follows: 200 μL of phenazine methosulfate (PMS) solution was added to 4 ml 3-(4,5-dimethylthiazol-2-yl)-5-(3-carboxymethoxyphenyl)-2-(4-sulfophenyl)-2H-tetrazolium inner salt (MTS) solution (16 mg in 10 ml PBS) and mix thoroughly) was added to each well of the 96-well plate. The plate was incubated at 37° C. for 1 to 4 h and the absorbance per well was measured at 490 nm with an EnVision plate reader. The average absorbance value of the negative control (Puromycin-treated cells) was subtracted from each value and the metabolic activity was calculated as a percentage relative to the positive control (DMSO-treated cells). EC50 values were calculated using GraphPad.

[4] = Plasmodium falciparum, 3D7, 96 h

SMILES: CN1CCC(N(C)c2ncc(Cl)c(N3CC(C(=O)NC(C)(C)c4cnc5ccccn45)C3)n2)C1 (stereo not drawn) [Example 59]
- IC50 [1]: 0.0042 µM
- EC50 [2, 4]: 0.09 µM

SMILES: CN1CCN(c2ncc(Cl)c(N3CC[C@H](C(=O)NC(C)(C)c4cnc5ccccn45)C3)n2)CC1 [Example 76]
- IC50 [1]: 0.0052 µM

SMILES: CN1CCN(c2ncc(Cl)c(N3CCC(C(=O)NC(C)(C)c4cnc5ccccn45)C3)n2)CC1 (stereo not drawn) [Example 76]
- IC50 (Human NMT1 (HsNMT1)): 0.056 µM
- EC50 [2]: 0.41 µM
- half-life ([3]; in vivo, iv 1 mg/kg, read-out: Rat iv t1/2 (converted)): 3 h
- bioavailability ([3]; plasma, oral 5 mg/kg): 70%

SMILES: COc1cnc(N2C[C@@H](C)N[C@@H](C)C2)nc1N1CC(C(=O)NC(C)(C)c2cnc3ccccn23)C1 [Example 42]
- IC50 [1]: 0.019 µM
- half-life at 1 µM (in vitro): > 3 h
- EC50 [2, 4]: 0.24 µM

SMILES: CN1CCN(c2ncc(Cl)c(N3CC[C@@H](C(=O)NC(C)(C)c4cnc5ccccn45)C3)n2)CC1 [Example 75]
- IC50 [1]: 0.035 µM
- IC50 (Human NMT1 (HsNMT1)): 0.25 µM
- EC50 [2]: > 1 µM

SMILES: CN1CCCN(c2ncc(F)c(N3CC(C(=O)NC(C)(C)c4cnc5ccccn45)C3)n2)CC1 [Example 56]
- IC50 [1]: 0.0032 µM
- half-life at 1 µM (in vitro): > 3 h
- EC50 [2, 4]: 0.025 µM
- EC50 (BL-41 cells): 0.8 µM

SMILES: COc1cnc(N2CC(C)N[C@@H](C)C2)nc1N1CC(C(=O)NC(C)(C)c2cnc3ccccn23)C1 (stereo partly drawn) [Example 45]
- IC50 [1]: 0.032 µM
- EC50 [2, 4]: 0.15 µM

SMILES: C[C@@H]1CN(c2ncc(Cl)c(N3CC[C@@H](C(=O)NC(C)(C)c4cnc5ccccn45)C3)n2)CCN1C [Example 99, (3R)-1-{5-chloro-2-[(3R)-3,4-dimethylpiperazin-1-yl]pyrimidin-4-yl}-N-(2-{imidazo[1,2-a]pyridin-3-yl}propan-2-yl)pyrrolidine-3-carboxamide]
- IC50 [1]: 0.015 µM
- IC50 (Human NMT1 (HsNMT1)): 0.028 µM
- half-life at 1 µM (in vitro): 0.497 h
- EC50 [2, 4]: 0.14 µM

SMILES: C[C@@H]1CN(c2ncc(Cl)c(N3CC[C@H](C(=O)NC(C)(C)c4cnc5ccccn45)C3)n2)CCN1C [Example 100, (3S)-1-{5-chloro-2-[(3R)-3,4-dimethylpiperazin-1-yl]pyrimidin-4-yl}-N-(2-{imidazo[1,2-a]pyridin-3-yl}propan-2-yl)pyrrolidine-3-carboxamide]
- IC50 [1]: 0.0054 µM
- IC50 (Human NMT1 (HsNMT1)): 0.019 µM
- half-life at 1 µM (in vitro): 0.547 h
- EC50 [2, 4]: 0.04 µM

Source: patent US20240166643A1, “IMIDAZO[1,2-A]PYRIDINE COMPOUNDS AND THEIR USE IN THERAPY” (Imperial College Innovations Limited, priority 2020, published 2024)
